Earlier results on one compound are cited in publication PMC8341375 (RSC Chemical Biology, 2021).

Chains of the proteins cited; added tags and fusions are not shown. Lines headed by an entry give the natural chain unless they say otherwise; changes in a name come on top.
UniProt P11511: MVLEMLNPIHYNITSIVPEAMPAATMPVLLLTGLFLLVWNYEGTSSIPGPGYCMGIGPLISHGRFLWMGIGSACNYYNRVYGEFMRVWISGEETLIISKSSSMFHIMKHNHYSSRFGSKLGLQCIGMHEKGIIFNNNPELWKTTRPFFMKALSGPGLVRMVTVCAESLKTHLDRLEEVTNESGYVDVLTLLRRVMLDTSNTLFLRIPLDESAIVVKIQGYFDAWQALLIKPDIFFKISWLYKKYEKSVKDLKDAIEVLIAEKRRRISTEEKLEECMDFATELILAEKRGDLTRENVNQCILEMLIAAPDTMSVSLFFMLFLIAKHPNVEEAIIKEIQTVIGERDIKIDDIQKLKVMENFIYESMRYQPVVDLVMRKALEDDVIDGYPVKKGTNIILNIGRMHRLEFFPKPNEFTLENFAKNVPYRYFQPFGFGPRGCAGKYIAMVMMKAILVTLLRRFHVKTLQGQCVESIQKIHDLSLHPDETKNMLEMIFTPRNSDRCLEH

The term Ki denotes a measure of affinity in units of concentration, obtained from inhibition or displacement.

For this data set, the target named is aromatase (CYP19) (Homo sapiens, UniProt P11511). The following applies: competitive AI; cited from earlier work.

For `CC/C(=C(\c1ccc(O)cc1)c1ccc(OCCN)cc1)c1ccccc1` [norendoxifen], the inhibition constant (Ki) was 35 nM.
